Data from US20160106107A1, “Compositions and Methods for Treating Microorganism” (priority 2006, published 2016).

Test system: healthy dry bean seed
Assay: Germination of healthy dry bean seed
Format: in vivo
Conditions: 0.25%

Which “Day to 50% germination” value does the source give for oxysilver nitrate [High valency silver] here?
Its value is 5.0 days.
